Source: US12540163B2 (priority 2021, dated 2026)

Sequences of proteins named here, by UniProt entry; tags and fusion partners are left off. A change or cut given only in a name is not applied to a line headed by its entry.
UniProt Q96D96: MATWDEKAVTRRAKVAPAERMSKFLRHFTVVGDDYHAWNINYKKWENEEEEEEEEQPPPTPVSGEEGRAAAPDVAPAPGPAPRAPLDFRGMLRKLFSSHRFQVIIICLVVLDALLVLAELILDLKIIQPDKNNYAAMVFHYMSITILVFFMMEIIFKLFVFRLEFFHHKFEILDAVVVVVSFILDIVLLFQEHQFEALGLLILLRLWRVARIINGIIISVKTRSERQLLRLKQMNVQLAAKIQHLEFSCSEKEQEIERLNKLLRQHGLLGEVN

Key:
hHv1 = hHv1 (Homo sapiens, UniProt Q96D96)

Substance: ethylene glycol tetraacetic acid [EGTA]
- Sperm H+ current V1/2 after application (hHv1 in human sperm): −10 ± 4 mV
- Sperm H+ current V1/2 shift (hHv1 in human sperm): 27 mV
- hHv1 in HEK293T cells V1/2 after application (hHv1): −25±2 mV
